The source of these data is patent US9975933B2, “Tumor tissue-penetrating peptide specific to neuropilin and fusion protein having same peptide fused therein” (AJOU UNIVERSITY INDUSTRY-ACADEMIC COOPERATION FOUNDATION, priority 2013, dated 2018).

One assay addresses FcγR IIIb (Homo sapiens, UniProt O75015). As to the kind of experiment: SPR binding of mAb and mAb-TPP to FcγRIIIb. As to the method: Specifically, each b1b2 domain of neuropilin-1 and -2 was diluted with 10 mM Na-acetate buffer (pH 4.0), and fixed onto CMS sensor chips (GE healthcare, USA) in about 1000 response units (RU). […] After bond and dissociation analysis, the regeneration of CMS chip was performed by streaming a buffer (20 Mm NaOH, 1 M NaCl, pH 10.0) at a stream velocity 30 μl/min for 1 minute.

Assay [1] has as its system FaDu. As to the kind of experiment: Inhibition of cancer cell growth in nude mice, FaDu. The format is in vivo. The following applies: FaDu xenograft, 2.5 and 10 mg/kg intravenously 6 times every 3 days. As to the method: Also, in order to confirm whether such tendency actually affects inhibition of cancer cells, an experiment confirming the inhibition of cancer cell growth was performed in nude mice.

Assay [2] concerns FaDu. As to the kind of experiment: In vitro cell growth inhibition, FaDu. Type of assay: cell-based, human. The following applies: 1 μM, 72 hours.

On to Cetuximab, for which, in the assay with FcγR IIIb, the Association rate ka is on record as 5.10 ± 0.45 × 10^3 M^−1s^−1 and the Dissociation rate kd is listed as 4.20 ± 0.19 × 10^−2 S^−1. Also, the Kd – broadly, the free concentration of one partner at which half of the binding sites on the other are occupied at equilibrium, for simple one-to-one binding – with FcγR IIIb (read-out: Binding affinity KD) was 8.23 µM. Moreover, the “inhibition of cancer cell growth (tumor volume)” value with FaDu [1] is “inhibited cancer cell growth”. In addition, the cell growth inhibition entry in the assay with FaDu [2] is given as “about 30%”.
